Data: publication PMC4079331 (Journal of Medicinal Chemistry, 2014)

How the values were obtained:
[1] = Stability in mouse plasma; assay type: in vitro ADME; settings: female, BALB/c, mouse plasma (pooled)
Procedure, shortened: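 Test compound at 50 μM final (1% DMSO) in pooled plasma from female BALB/c mice or human AB serum. Incubated at 37 °C with gentle agitation. Samples taken at 0, 0.5, 1, 2, 8, 18 and 24 h. Proteins precipitated with CH3CN, vortexed and centrifuged (3000g, 10 min, room temperature); supernatant analysed by LCMS. Run in triplicate.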

[2] = Plasma pharmacokinetics in BALB/c mice after a single dose; assay type: in vivo; settings: mouse, blood, ip, 2.5 mg/kg

CN1C(=O)N[C@H]2[C@@H]3NC(=O)c4ccc(Br)n4[C@@H]3C[C@]21O [1a, (−)-Agelastatin A]
recovery at 24 h, 50 μM [1]: 65 to 90%
Cmax ([2]; female): 1650 nM
AUC [2]: 6.26 µM·h
half-life [2]: 1.4 h
